Source: US12393007B2, “Method for adapting optical properties of an immersion mixture, and immersion mixtures and components thereof” (Carl Zeiss Microscopy GmbH, priority 2018, dated 2025)

Assay: Refractive index ne at 23° C., reference wavelength 546.1 nm
Assay type: physicochemical

For O.O.[Na+].[Na+].[O]=[Mo](=[O])([O-])[O-] [sodium molybdate dihydrate], the “ne (refractive index) of aqueous solution 200 g/L” value was 1.3619.
